Tests used:
Cytochrome P450 2C9 = Cytochrome P450 2C9 (Homo sapiens, UniProt P11712); note: in other assays of this panel Not Active means under 50% inhibition at 10 µM
[1] = molecular target: Receptor tyrosine-protein kinase erbB-2 (Homo sapiens, UniProt P04626); format: cell-based; conditions: insect cells;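 note: inhibition of HER2 kinase enzyme activity, measured with Poly(Glu:Tyr) as the phosphorylation substrate; in other assays of this panel Not Active means under 50% inhibition at 10 µM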
D(3) dopamine receptor = D(3) dopamine receptor (Homo sapiens, UniProt P35462); test: DRUGMATRIX: Dopamine D3 radioligand binding (ligand: [3H] Spiperone); format: cell membranes, CHO, Membrane
[2] = molecular target: Amine oxidase [flavin-containing] A (Homo sapiens, UniProt P21397); test: DRUGMATRIX: Monoamine Oxidase MAO-A enzyme inhibition (substrate: Kynuramine); set-up: species or system BTI-TN-5B1-4; conditions: Not Active = under 50% inhibition at 10 µM
[3] = molecular target: Prostaglandin G/H synthase 1 (Homo sapiens, UniProt P23219); test: biochemical; format: tissue-based, Platelet;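 note: inhibition of COX-1 enzyme activity, with arachidonic acid supplied as substrate; in other assays of this panel Not Active means under 50% inhibition at 10 µM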
[4] = molecular target: Beta-1 adrenergic receptor (Homo sapiens, UniProt P08588); test: DRUGMATRIX: Adrenergic beta1 radioligand binding (ligand: [125I] Cyanopindolol); format: cell membranes, CHO-K1, Membrane; conditions: Not Active = under 50% inhibition at 10 µM
[5] = molecular target: T1, 3-hydroxy-3-methylglutaryl-coenzyme A reductase (Homo sapiens, UniProt P04035); set-up: species or system Escherichia coli;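 note: enzyme inhibition assay of HMG-CoA reductase using radiolabeled [14C]HMG-CoA as substrate; in other assays of this panel Not Active means under 50% inhibition at 10 µM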
T1 sequence (P04035 whole entry): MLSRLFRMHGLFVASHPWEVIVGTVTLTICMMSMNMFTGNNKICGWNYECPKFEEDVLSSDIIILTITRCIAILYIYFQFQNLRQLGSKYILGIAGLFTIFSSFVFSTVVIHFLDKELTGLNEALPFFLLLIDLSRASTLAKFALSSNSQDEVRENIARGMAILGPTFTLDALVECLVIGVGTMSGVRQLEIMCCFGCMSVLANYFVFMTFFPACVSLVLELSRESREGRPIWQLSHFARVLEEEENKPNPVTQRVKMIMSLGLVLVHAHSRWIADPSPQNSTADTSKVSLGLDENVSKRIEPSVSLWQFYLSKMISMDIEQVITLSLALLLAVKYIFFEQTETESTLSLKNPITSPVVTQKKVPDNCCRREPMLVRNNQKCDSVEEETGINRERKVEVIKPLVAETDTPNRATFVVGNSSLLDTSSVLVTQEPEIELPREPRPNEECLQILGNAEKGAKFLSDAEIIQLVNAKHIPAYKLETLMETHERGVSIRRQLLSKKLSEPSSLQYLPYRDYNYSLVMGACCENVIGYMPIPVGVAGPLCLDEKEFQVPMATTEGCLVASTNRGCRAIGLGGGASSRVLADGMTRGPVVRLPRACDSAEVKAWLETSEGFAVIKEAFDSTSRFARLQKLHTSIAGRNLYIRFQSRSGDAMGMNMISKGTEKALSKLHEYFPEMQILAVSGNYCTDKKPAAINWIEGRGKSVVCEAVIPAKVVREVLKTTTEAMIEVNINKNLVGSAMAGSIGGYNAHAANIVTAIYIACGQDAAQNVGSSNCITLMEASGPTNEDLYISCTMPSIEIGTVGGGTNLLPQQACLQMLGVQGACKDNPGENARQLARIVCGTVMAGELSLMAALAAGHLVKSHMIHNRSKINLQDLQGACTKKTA

Amino acid sequences for entries named in this document (tags omitted). A change or cut given only in a name is not applied to a line headed by its entry.
UniProt P11712, whole entry: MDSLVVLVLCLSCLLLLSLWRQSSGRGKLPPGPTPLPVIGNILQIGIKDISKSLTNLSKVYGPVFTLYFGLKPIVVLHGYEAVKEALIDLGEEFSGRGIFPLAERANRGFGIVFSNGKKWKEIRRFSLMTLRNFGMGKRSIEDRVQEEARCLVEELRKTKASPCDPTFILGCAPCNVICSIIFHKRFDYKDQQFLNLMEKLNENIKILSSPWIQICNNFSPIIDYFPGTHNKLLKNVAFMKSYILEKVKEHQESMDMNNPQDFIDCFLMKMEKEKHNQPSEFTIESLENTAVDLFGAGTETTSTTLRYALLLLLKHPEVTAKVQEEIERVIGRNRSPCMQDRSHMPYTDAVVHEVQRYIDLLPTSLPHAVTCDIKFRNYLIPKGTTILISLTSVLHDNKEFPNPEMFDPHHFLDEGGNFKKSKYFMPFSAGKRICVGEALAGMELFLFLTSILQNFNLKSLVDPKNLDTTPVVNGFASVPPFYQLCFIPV
UniProt P35462, whole entry: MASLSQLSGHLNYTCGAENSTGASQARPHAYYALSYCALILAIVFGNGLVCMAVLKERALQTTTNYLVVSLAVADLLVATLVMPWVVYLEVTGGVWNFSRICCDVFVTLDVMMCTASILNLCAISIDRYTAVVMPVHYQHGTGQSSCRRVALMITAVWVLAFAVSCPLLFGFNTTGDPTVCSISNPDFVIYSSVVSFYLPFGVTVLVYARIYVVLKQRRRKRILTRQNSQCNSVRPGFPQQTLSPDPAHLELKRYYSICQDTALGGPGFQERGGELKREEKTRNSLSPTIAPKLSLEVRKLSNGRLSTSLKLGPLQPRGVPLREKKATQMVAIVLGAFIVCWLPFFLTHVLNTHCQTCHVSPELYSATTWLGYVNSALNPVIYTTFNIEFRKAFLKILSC
UniProt P21397, whole entry: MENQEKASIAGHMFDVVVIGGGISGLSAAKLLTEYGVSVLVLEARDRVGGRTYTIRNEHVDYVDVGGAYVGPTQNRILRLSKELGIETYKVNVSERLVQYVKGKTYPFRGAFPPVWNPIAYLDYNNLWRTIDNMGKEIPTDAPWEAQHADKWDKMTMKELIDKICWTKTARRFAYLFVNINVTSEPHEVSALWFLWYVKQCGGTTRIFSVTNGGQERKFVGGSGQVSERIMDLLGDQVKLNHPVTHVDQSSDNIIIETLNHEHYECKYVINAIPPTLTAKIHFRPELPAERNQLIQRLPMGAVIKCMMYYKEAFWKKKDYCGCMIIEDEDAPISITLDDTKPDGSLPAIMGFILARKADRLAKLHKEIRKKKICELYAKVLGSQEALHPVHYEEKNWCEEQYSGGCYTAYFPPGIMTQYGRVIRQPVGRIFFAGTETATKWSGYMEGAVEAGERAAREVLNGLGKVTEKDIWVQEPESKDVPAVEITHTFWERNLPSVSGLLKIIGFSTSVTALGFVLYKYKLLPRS
UniProt P23219, whole entry: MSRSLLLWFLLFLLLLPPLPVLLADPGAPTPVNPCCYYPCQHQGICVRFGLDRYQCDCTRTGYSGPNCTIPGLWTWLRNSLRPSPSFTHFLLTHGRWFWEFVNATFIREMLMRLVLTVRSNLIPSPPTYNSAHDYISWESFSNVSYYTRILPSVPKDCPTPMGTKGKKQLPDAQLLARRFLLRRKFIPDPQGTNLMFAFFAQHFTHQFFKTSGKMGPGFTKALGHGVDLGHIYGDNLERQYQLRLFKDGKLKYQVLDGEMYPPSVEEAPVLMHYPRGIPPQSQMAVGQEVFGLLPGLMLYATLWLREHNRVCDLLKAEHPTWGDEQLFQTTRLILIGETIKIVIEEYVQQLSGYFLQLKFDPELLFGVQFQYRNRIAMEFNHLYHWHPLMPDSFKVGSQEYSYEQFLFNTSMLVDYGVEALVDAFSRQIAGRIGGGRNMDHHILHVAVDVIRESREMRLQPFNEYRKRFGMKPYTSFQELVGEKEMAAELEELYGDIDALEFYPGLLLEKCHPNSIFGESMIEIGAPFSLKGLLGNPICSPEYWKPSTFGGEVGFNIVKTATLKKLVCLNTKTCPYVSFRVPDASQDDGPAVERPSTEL
UniProt P08588, whole entry: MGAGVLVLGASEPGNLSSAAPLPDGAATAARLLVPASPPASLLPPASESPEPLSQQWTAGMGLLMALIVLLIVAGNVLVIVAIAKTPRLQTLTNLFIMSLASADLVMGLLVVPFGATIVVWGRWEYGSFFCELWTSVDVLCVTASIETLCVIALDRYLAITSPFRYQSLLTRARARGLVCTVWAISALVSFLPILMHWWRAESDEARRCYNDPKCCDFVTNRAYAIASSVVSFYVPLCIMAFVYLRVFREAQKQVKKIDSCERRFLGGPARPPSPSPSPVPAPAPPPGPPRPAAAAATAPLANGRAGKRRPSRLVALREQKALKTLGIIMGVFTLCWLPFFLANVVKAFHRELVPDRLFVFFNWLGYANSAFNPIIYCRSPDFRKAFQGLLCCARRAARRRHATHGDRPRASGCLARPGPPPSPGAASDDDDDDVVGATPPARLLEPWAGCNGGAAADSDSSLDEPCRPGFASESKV
UniProt P05177, whole entry: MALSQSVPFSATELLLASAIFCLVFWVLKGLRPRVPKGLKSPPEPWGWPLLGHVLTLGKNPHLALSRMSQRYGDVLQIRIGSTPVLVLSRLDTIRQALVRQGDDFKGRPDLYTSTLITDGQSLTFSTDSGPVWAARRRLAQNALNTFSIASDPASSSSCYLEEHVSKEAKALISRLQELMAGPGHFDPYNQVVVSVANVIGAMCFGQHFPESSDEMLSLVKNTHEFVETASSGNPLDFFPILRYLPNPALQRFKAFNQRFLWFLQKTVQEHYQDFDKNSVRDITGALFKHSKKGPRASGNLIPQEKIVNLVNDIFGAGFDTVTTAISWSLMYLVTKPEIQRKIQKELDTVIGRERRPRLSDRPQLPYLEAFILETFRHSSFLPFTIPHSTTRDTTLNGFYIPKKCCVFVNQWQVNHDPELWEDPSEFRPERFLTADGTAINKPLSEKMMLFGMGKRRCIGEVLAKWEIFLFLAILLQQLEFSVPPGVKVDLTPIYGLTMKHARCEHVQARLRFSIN
UniProt P08913, whole entry: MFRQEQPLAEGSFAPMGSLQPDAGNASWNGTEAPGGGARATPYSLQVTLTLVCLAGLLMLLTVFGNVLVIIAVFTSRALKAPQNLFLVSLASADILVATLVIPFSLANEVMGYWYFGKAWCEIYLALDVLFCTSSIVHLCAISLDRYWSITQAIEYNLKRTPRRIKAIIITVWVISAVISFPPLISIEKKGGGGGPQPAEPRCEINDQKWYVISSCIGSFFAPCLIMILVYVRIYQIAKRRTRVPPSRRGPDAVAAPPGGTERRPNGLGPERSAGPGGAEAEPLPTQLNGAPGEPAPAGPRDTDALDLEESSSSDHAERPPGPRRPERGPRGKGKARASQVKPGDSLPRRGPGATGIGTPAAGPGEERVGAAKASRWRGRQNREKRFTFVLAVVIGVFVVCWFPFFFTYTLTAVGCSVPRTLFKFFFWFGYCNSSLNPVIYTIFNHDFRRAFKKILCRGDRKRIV
UniProt P18825, whole entry: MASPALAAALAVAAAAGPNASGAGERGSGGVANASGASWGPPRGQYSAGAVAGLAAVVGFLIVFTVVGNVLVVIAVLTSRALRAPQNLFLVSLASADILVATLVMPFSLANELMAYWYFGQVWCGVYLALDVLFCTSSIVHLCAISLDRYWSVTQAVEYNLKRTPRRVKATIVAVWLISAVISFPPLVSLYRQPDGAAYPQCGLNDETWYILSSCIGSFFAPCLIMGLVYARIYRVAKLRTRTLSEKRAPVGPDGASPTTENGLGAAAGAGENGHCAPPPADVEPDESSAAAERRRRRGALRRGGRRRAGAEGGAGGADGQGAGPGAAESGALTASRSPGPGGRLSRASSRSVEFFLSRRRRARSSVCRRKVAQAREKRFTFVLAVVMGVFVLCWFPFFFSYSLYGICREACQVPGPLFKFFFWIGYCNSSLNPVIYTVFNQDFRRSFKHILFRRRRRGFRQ
UniProt P22303: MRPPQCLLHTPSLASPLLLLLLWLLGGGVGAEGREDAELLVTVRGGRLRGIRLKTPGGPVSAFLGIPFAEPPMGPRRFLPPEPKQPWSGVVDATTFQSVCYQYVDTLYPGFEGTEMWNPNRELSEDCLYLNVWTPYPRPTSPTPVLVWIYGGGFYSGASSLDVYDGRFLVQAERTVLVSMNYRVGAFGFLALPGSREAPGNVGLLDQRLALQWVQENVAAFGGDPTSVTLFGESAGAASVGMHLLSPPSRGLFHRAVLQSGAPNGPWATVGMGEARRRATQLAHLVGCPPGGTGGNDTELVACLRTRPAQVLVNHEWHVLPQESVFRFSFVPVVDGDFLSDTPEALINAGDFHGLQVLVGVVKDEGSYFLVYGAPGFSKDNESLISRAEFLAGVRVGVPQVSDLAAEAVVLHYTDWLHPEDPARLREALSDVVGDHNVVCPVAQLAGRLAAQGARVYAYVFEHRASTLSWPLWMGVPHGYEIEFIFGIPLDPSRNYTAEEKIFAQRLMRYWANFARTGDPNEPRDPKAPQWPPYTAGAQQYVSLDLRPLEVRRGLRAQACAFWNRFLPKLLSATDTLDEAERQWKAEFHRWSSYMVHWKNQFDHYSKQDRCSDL
UniProt Q12809: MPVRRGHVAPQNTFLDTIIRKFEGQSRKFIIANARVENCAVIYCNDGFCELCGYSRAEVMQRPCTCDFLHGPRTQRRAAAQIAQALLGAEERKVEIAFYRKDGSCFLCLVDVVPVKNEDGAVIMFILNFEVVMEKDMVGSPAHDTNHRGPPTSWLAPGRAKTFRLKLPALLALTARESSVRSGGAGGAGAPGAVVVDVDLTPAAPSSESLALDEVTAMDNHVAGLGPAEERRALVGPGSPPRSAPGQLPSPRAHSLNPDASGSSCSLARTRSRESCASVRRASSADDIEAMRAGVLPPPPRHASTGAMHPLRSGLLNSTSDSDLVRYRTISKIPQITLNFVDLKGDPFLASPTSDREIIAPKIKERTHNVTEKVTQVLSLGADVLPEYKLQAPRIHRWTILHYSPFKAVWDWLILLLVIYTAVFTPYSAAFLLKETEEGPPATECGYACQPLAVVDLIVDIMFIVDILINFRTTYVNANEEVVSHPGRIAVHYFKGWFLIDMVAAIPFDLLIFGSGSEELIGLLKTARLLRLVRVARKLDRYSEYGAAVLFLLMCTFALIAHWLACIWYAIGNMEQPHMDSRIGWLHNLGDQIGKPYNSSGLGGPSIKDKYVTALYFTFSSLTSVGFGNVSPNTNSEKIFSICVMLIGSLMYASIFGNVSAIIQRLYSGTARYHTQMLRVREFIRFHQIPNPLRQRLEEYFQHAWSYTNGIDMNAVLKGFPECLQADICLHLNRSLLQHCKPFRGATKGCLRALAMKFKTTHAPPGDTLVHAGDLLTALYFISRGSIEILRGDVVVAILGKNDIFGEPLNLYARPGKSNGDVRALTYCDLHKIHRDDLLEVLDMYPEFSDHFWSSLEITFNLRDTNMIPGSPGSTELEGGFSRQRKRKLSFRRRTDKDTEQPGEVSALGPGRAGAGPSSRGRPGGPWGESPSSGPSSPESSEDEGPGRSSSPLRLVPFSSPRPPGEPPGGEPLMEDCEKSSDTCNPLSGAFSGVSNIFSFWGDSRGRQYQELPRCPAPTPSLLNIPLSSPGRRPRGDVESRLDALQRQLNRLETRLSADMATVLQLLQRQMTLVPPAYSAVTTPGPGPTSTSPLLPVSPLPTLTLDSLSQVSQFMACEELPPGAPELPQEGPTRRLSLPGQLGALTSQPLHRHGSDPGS
UniProt P10635, whole entry: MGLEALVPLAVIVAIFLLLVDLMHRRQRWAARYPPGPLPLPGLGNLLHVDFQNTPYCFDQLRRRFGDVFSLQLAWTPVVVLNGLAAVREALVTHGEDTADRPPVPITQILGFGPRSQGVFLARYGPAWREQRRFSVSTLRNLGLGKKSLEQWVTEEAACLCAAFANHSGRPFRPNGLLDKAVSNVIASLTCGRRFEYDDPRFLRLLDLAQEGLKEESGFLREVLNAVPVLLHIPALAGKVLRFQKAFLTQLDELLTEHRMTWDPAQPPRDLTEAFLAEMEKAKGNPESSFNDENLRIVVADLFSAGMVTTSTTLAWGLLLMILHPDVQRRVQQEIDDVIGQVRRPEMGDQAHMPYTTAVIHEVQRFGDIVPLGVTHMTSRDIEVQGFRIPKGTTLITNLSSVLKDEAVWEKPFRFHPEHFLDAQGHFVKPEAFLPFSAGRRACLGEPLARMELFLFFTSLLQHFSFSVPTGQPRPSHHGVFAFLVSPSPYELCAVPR

[6] = molecular target: T2, Alpha-1A adrenergic receptor (Rattus norvegicus, UniProt P43140); test: DRUGMATRIX: Alpha-1A adrenergic receptor radioligand binding (ligand: prazosin); format: cell membranes, Wistar, Submaxillary gland, Membrane; conditions: Not Active = under 50% inhibition at 10 µM
T2 sequence (P43140 whole entry): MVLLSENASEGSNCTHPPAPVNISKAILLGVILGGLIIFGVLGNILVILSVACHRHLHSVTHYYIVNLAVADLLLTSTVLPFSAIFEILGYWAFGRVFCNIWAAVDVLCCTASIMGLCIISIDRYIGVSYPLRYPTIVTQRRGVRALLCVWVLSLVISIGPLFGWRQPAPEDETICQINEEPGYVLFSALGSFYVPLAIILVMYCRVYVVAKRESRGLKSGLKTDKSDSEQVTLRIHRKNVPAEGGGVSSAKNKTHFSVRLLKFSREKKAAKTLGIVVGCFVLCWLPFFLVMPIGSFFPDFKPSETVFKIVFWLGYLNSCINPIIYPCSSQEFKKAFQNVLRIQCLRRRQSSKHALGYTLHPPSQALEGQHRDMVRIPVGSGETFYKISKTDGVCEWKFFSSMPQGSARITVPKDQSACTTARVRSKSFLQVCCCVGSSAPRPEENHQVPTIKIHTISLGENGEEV

[7] = molecular target: Alpha-1B adrenergic receptor (Rattus norvegicus, UniProt P15823); test: DRUGMATRIX: Alpha-1B adrenergic receptor radioligand binding (ligand: prazosin); format: cell membranes, Wistar, Liver, Membrane; conditions: Not Active = under 50% inhibition at 10 µM
Cytochrome P450 1A2 = Cytochrome P450 1A2 (Homo sapiens, UniProt P05177); note: in other assays of this panel Not Active means under 50% inhibition at 10 µM
[8] = molecular target: Alpha-2A adrenergic receptor (Homo sapiens, UniProt P08913); format: cell membranes, Sf9, Membrane; note: in other assays of this panel Not Active means under 50% inhibition at 10 µM
[9] = molecular target: Alpha-2C adrenergic receptor (Homo sapiens, UniProt P18825); test: DRUGMATRIX: Adrenergic Alpha-2C radioligand binding (ligand: [3H] MK-912); format: cell membranes, Sf9, Membrane
Acetylcholinesterase = Acetylcholinesterase (Homo sapiens, UniProt P22303); test: DRUGMATRIX: Acetylcholinesterase enzyme inhibition (substrate: acetylthiocholine); format: cell-based, HEK293; conditions: Not Active = under 50% inhibition at 10 µM
[10] = molecular target: Voltage-gated inwardly rectifying potassium channel KCNH2 (Homo sapiens, UniProt Q12809); note: in other assays of this panel Not Active means under 50% inhibition at 10 µM
Cytochrome P450 2D6 = Cytochrome P450 2D6 (Homo sapiens, UniProt P10635); note: in other assays of this panel Not Active means under 50% inhibition at 10 µM

Compound: C#C[C@]1(O)CC[C@H]2[C@@H]3CCC4=Cc5oncc5C[C@]4(C)[C@H]3CC[C@@]21C [DANAZOL]
- IC50 (Cytochrome P450 2C9): 300 nM

Compound: CADMIUM DICHLORIDE
- IC50 [1]: 1330 nM

Compound: CCN1CCC[C@H]1CNC(=O)c1cc(S(N)(=O)=O)ccc1OC [LEVOSULPIRIDE]
- IC50 (D(3) dopamine receptor): 123 nM
- Ki (D(3) dopamine receptor): 42 nM

Compound: COc1ccc2cc(CCC(C)=O)ccc2c1 [NABUMETONE]
- IC50 [2]: 998 nM

Compound: O=C(O)c1cccnc1Nc1cccc(C(F)(F)F)c1 [NIFLUMIC ACID]
- IC50 [3]: 1060 nM

Compound: CC(C)NCC(O)c1ccc(NS(C)(=O)=O)cc1 (configuration not stated) [SOTALOL]
- IC50 [4]: 1440 nM
- Ki [4]: 833 nM

Compound: CC[C@H](C)C(=O)O[C@H]1C[C@H](O)C=C2C=C[C@H](C)[C@H](CC[C@@H](O)C[C@@H](O)CC(=O)O)[C@H]21 [PRAVASTATIN]
- IC50 [5]: 5.59 nM

Compound: CNC[C@H](O)c1ccc(O)c(O)c1 [EPINEPHRINE]
- IC50 [6]: 628 nM
- Ki [6]: 254 nM
- IC50 [7]: 1770 nM
- Ki [7]: 977 nM

Compound: CC(C)c1c(C(=O)Nc2ccccc2)c(-c2ccccc2)c(-c2ccc(F)cc2)n1CC[C@@H](O)C[C@@H](O)CC(=O)O [ATORVASTATIN]
- IC50 [5]: 0.227 nM

Compound: COc1cc(NC(C)CCCN)c2ncccc2c1 (configuration not stated) [PRIMAQUINE]
- IC50 (Cytochrome P450 1A2): 182 nM

Compound: CCN1CCCC1CNC(=O)c1cc(S(N)(=O)=O)ccc1OC (configuration not stated) [SULPIRIDE]
- IC50 (D(3) dopamine receptor): 169 nM
- Ki (D(3) dopamine receptor): 57 nM

Compound: NNCCc1ccccc1 [PHENELZINE]
- IC50 [2]: 146 nM

Compound: CC(C)C[C@H]1C(=O)N2CCC[C@H]2[C@]2(O)O[C@](NC(=O)[C@@H]3C=C4c5cccc6[nH]c(Br)c(c56)C[C@H]4N(C)C3)(C(C)C)C(=O)N12 [BROMOCRIPTINE]
- IC50 [8]: 15 nM
- Ki [8]: 5.53 nM
- IC50 [9]: 520 nM
- Ki [9]: 76 nM

Compound: CCN(CC)CCCC(C)Nc1c2ccc(Cl)cc2nc2ccc(OC)cc12 (configuration not stated) [QUINACRINE]
- IC50 (Acetylcholinesterase): 2670 nM

Compound: O=C(O)CCc1nc(-c2ccccc2)c(-c2ccccc2)o1 [OXAPROZIN]
- IC50 [3]: 856 nM

Compound: CNCCCN1c2ccccc2CCc2ccccc21 [DESIPRAMINE]
- IC50 [10]: 27800 nM
- Ki [10]: 22800 nM

Compound: COc1cc(N)c(Cl)cc1C(=O)NC1CCN(CCCOc2ccc(F)cc2)CC1OC (configuration not stated) [CISAPRIDE]
- IC50 (Cytochrome P450 2D6): 70 nM

From ChEMBL document CHEMBL1909046, “DrugMatrix in vitro pharmacology data”
